Experimental data taken from patent publication US7741341B2, “Benzimidazole-derivatives as factor Xa inhibitors” (sanofi-aventis Deutschland GmbH, priority 2003, dated 2010).
pKi: −log10 of the molar value.

Protein sequences, listed by entry. Tags and fused reporters are not part of them. Residues count along the entry.
UniProt P00742, 235-488 limits assumed: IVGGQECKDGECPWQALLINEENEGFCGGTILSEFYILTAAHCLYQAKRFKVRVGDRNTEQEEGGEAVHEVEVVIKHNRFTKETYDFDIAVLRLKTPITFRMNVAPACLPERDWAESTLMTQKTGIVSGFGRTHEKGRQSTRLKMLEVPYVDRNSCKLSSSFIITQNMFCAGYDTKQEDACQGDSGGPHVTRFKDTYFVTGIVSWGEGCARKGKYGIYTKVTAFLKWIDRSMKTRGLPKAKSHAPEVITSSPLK
UniProt P00742, 41-179 partner limits assumed: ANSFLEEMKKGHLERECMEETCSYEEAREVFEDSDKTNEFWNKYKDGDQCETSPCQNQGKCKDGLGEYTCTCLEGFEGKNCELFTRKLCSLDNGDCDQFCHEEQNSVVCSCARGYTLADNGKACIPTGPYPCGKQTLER

biological target: human factor Xa (Homo sapiens, UniProt P00742); experiment: Factor Xa assay (chromogenic, substrate S-2765); format: biochemical; details: read-out: Ki(FXa); inhibition constant for factor Xa; purified enzyme 0.5 nM, substrate S-2765 140 μM, 25° C.; Ki calculated from IC50

pKi	SMILES
9.10	Cc1cc(C(=O)O)cc2nc(C(=O)NC3CCN(C4CC4)CC3)n(Cc3cc(-c4ccc(Cl)s4)on3)c12
4.05	CC(C)N1CCC(NC(=O)c2nc3csc(C(=O)O)c3n2CC(=O)Nc2ccc(Cl)cn2)CC1
6.25	COc1cccc(Cn2c(C(=O)NC3CCN(C(C)C)CC3)nc3c(C(=O)O)cccc32)c1
6.65	CC(C)N1CCC(NC(=O)c2nc3ccc(S(=O)(=O)CCO)cc3n2CC(=O)Nc2ccc(Cl)cn2)CC1
6.73	O=C(O)c1ccc2nc(C(=O)NC3CCN(C4CC4)CC3)n(Cc3cc(-c4ccc(Cl)s4)no3)c2c1
7.15	CC(C)N1CCC(NC(=O)c2nc3cc(S(=O)(=O)CCO)ccc3n2CC(=O)Nc2ccc(Cl)cn2)CC1
7.66	O=C(O)c1ccc2c(c1)nc(C(=O)NC1CCN(C3CC3)CC1)n2Cc1cc(-c2ccc(Cl)s2)no1
8.30	CC(C)N1CCC(NC(=O)c2nc3c(C(=O)O)scc3n2Cc2cc(-c3ccc(Cl)s3)on2)CC1
7.52	O=C(O)c1cccc2c1nc(C(=O)NC1CCN(C3CC3)CC1)n2Cc1cc(-c2ccc(Cl)s2)on1
7.19	CC(C)N1CCC(NC(=O)c2nc3c(C(=O)O)cccc3n2CCc2ccc(Cl)cc2)CC1
7.66	CC(C)N1CCC(NC(=O)c2nc3c(C(=O)O)scc3n2CC(=O)Nc2ccc(Cl)cn2)CC1
